Measured affinities in a library of Ab-14 heavy chain variants

Reference: Li et al. 2023, doi:10.1038/s41467-023-39022-2. File: FLAb, binding data.

Antigen: PDVDLGDISGINAS, a 14-residue peptide of the SARS-CoV-2 spike HR2 region.

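The starting antibody came from a phage panning campaign against this peptide. Designed CDR sequences, proposed from the first random library and measured here. Group labels follow the data file (Rand: our label for a block that the file lists under HC and that is probably the random mutants of the ten best first-round binders; En: ensemble of fine-tuned language models; HC: hill climbing; Gen: genetic algorithm; Gibbs: Gibbs sampling; a sequence that several methods proposed may carry one label only). The assay is AlphaSeq: two haploid yeast populations carry antibody and antigen on their surface. After mating in shaken culture at 30 °C for 16 h, diploids were selected and their barcode pairs sequenced. The ratio of observed to expected reads was calibrated, replicate by replicate, on BCL2-family standards whose Kd was known from biolayer interferometry. The assay was run in six technical replicates.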

The variants keep the light chain, the linker and the frameworks of Ab-14 (scFv order VH, a 15-residue (Gly4Ser)3 linker, VL).
VH: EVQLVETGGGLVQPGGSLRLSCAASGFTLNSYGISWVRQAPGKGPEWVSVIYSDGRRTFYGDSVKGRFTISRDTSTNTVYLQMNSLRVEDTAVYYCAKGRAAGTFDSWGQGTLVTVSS
VL: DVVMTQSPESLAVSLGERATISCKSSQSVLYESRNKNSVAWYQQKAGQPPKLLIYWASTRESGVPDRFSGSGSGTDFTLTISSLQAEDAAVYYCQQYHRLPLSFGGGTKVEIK

Each variant is given by its three heavy chain CDRs, as the data file delimits them; those of the parent are GFTLNSYGIS, VIYSDGRRTFYGDSVK, GRAAGTFDS. Variants here have more than six changes. Kd is apparent (estimated from mating counts) and averaged on the log scale over replicates with a signal. Smaller is tighter. Where no diploid with the target was found in any replicate, the entry reads "no signal": below detection, most likely a poor binder, though not proof of it. Nonspecific signal, from three strains lacking the peptide, appeared in 1% of pairings of all heavy chain designs, centred on 120 nM (5% of these signals below 7.0 nM); values are not corrected for it. Also given: how often the same scFv was detected with the empty control strains.

With GENLDEYGIS | VIYADGVREAYANNVK | GEQGSYFIT [En_Gibbs] the result was no signal (0 of 6 replicates; controls 0 of 18). Variant GFDLDEYGIS | VIYADGRRTAYADSVK | GQNAGTFDV [En_Gen] gave 240 pM (6 of 6 replicates; controls 0 of 18). For GKSLNEFGIS | VIYADGVRRAYADDVK | GNAAGHFIS [En_Gibbs], the assay gave no signal (0 of 6 replicates; controls 0 of 18). With GFDLNEYGIS | VIYADGSRTAYADSVK | GENAGTFDV [En_Gen] the result was 2.6 nM (6 of 6 replicates; controls 0 of 18). For GFDLNEYGIS | VIYADGKRTSYADSVK | GEVAGTFDV [En_Gen], the assay gave 130 pM (6 of 6 replicates; controls 0 of 18).

Variant GFDLDEYGIS | VIYADGRRTFYTDSVK | GSNAGTFLM [En_HC] gave 890 nM (4 of 6 replicates; controls 1 of 18). Variant GENLEEYGIS | VIYADGMRTQYAEKVK | GQQGGFFIK [En_Gibbs] showed no signal (0 of 6 replicates; controls 0 of 18). For GFDIDEYGIS | VIYADGFREAYAESVK | GLIQTGITV [En_Gibbs], the assay gave no signal (0 of 6 replicates; controls 0 of 18). Variant KFDIEHYGIS | VIYADGKRTAYSNAVK | GNQGGTFNT [En_Gibbs] showed 2.8 nM (6 of 6 replicates; controls 0 of 18). With GFDLNEYGIS | VIYADGMRTAYTDSVK | GQNAGTFDM [En_Gen] the result was 410 pM (6 of 6 replicates; controls 0 of 18).

Variant GFDLDEYGIS | VIYADGQRTAYADSVK | GNTAGTFDT [En_Gen] gave 310 pM (6 of 6 replicates; controls 0 of 18). Variant GFDLNEYGIS | VIYADGMRTAYSDSVK | GETAGTFDM [En_Gen] gave 350 pM (6 of 6 replicates; controls 1 of 18). With GMDLNEYGIS | VIYADGLRTAYIDAVK | GKGSVIIGH [En_Gibbs] the result was no signal (0 of 6 replicates; controls 0 of 18). Variant GFDLNEYGIS | VIYADGQRTAYADDVK | GQNAGTFDV [En_Gen] gave 140 pM (6 of 6 replicates; controls 0 of 18). For GKSLDEYGIS | VIYADGMRAEYQNQVK | GTTGGDVFV [En_Gibbs], the assay gave no signal (0 of 6 replicates; controls 0 of 18).

Variant GFDLNEYGIS | VIYADGHRTFYSDSVK | GQTAGTFDA [En_HC] gave 340 pM (6 of 6 replicates; controls 0 of 18). With GFDLNEYGIS | VIYADGMRTMYADSVK | GNVAGTFDL [En_Gen] the result was 970 pM (6 of 6 replicates; controls 0 of 18). Variant GFTLNDMGIS | VIYSDGRRTQYIDSVK | GFANGTFGS [Rand] gave no signal (0 of 6 replicates; controls 0 of 18). Variant GFDLNEYGIS | VIYADGMRTAYTDSVK | GNVAGTFDI [En_Gen] gave 72 pM (5 of 6 replicates; controls 0 of 18). With GFDLNEYGIS | VIYADGQRTAYADSVK | GTNAGTFDT [En_Gen] the result was 530 pM (6 of 6 replicates; controls 0 of 18).

For GFDLNEYGIS | VIYADGMRTAYSDSVK | GNVAGTFDM [En_Gen], the assay gave 240 pM (6 of 6 replicates; controls 0 of 18). Variant GFDLNEYGIS | VIYADGMRTAYSDNVK | GNVAGTFDI [En_Gen] gave 210 pM (6 of 6 replicates; controls 1 of 18). For GFNLNEYGIS | VIYADGMRTAYSDSVK | GEAAGTFDV [En_HC], the assay gave 190 pM (6 of 6 replicates; controls 0 of 18). Variant GENLSEYGIS | VIYADGRKTAYSNAVK | GAVGGIFVN [En_Gibbs] gave no signal (0 of 6 replicates; controls 0 of 18). For GQDLAEYGIS | VIYADGKRTYYAQDVK | GTNVGQGGT [En_Gibbs], the assay gave no signal (0 of 6 replicates; controls 0 of 18).

Variant GFDLNEYGIS | VIYADGKRTAYADDVK | GNNAGTFDV [En_Gen] showed 580 pM (6 of 6 replicates; controls 0 of 18). With GFDLNEYGIS | VIYADGQRTAYSDSVK | GEVAGTFDM [En_Gen] the result was 1.2 nM (6 of 6 replicates; controls 0 of 18). With GFDLDEYGIS | VIYADGRRTAYSDSVK | GGNAGTFDV [En_Gen] the result was no signal (0 of 6 replicates; controls 1 of 18). For GFDLNEYGIS | VIYADGTRTYYANSFK | GDYVVVNSI [En_Gibbs], the assay gave no signal (0 of 6 replicates; controls 0 of 18). Variant GFDINEYGIS | VIYADGRRTYYADSVK | GEAAGTFDE [En_HC] gave 620 pM (6 of 6 replicates; controls 1 of 18).

Variant GFDLNEYGIS | VIYADGFRTFYTDSVK | GETAGTFDS [En_HC] showed 290 pM (6 of 6 replicates; controls 0 of 18). Variant GFDLDEYGIS | VIYADGKRTFYADSVK | GELAGTFDS [En_HC] gave 460 pM (6 of 6 replicates; controls 0 of 18). With GFDLNEYGIS | VIYADGRRTFYADSVK | GEIAGTFDA [En_HC] the result was 190 pM (6 of 6 replicates; controls 0 of 18). Variant GFDLNEYGIS | VIYADGMRTAYADSVK | GNNAGTFDI [En_Gen] gave 540 pM (6 of 6 replicates; controls 0 of 18). With GFNLDEYGIS | VIYADGVRTFYSNSVK | GYGGIFMEG [En_Gibbs] the result was no signal (0 of 6 replicates; controls 0 of 18).

With GFDINEYGIS | VIYADGFREAYAESVK | GLNQTGWTV [En_Gibbs] the result was no signal (0 of 6 replicates; controls 0 of 18). Variant GFDLNEYGIS | VIYADGKRTFYSDKVK | GNVGGTFDI [En_HC] showed 1.8 nM (6 of 6 replicates; controls 0 of 18). Variant FFKLEDYGIS | VIYADGKRKAYEQNVK | GQIAGTFDV [En_Gibbs] showed 53 nM (4 of 6 replicates; controls 0 of 18). Variant GFDLDEYGIS | VIYADGTRTAYADSVK | GENAGTFDV [En_Gen] showed 5.8 nM (6 of 6 replicates; controls 0 of 18). With GKDIEEYGIS | VIYADGMRQAYLDKVK | GNNGGSGLF [En_Gibbs] the result was no signal (0 of 6 replicates; controls 0 of 18).

Variant GFKLDEYGIS | VIYADGVRAHYKDSVK | GVHQFNVVM [En_Gibbs] showed no signal (0 of 6 replicates; controls 1 of 18). For GFDLNEYGIS | VIYADGVQRFYTDNVK | GGNQGTFVL [En_Gibbs], the assay gave no signal (0 of 6 replicates; controls 0 of 18). Variant GFDLNEYGIS | VIYADGQRTFYADSVK | GQNAGTFDQ [En_HC] gave 130 pM (6 of 6 replicates; controls 0 of 18). Variant GFDLDEYGIS | VIYADGMRTAYADNVK | GNVAGTFDL [En_Gen] showed 160 pM (6 of 6 replicates; controls 0 of 18). With GFNLNEYGIS | VIYADGMRTVYADSVK | GQIAGTFDV [En_HC] the result was 580 pM (6 of 6 replicates; controls 1 of 18).

For GFDLNEYGIS | VIYADGVRTAYVDSVK | GETAGTFDS [En_HC], the assay gave 360 pM (6 of 6 replicates; controls 0 of 18). Variant GFDLNEYGIS | VIYADGRRTFYADSVK | GNNAGTFIS [En_HC] gave 120 nM (6 of 6 replicates; controls 0 of 18). With GFDLNEYGIS | VIYADGRRTFYADSVK | GNNAGTFID [En_HC] the result was 1.3 nM (6 of 6 replicates; controls 0 of 18). For GFDLNEYGIS | VIYADGVRTAYSDDVK | GENAGTFDI [En_Gen], the assay gave 340 pM (6 of 6 replicates; controls 0 of 18). With GFDLDEYGIS | VIYADGMRTFYADSVK | GNNAGTFDV [En_Gen] the result was 1.3 nM (6 of 6 replicates; controls 0 of 18).

With GFSLDEMGIS | VIYADGQRTAYVDNVK | SVQGVVVFL [En_Gibbs] the result was no signal (0 of 6 replicates; controls 0 of 18). Variant GFNLDEYGIS | VIYADGMRASYINSAK | GNYGIVFTV [En_Gibbs] gave no signal (0 of 6 replicates; controls 1 of 18).

For reference, 3 entries of the list once more:

For GFDLNEYGIS | VIYADGRRTFYADSVK | GEIAGTFDA [En_HC], the assay gave 190 pM (6 of 6 replicates; controls 0 of 18).
For GFDLNEYGIS | VIYADGSRTAYADSVK | GENAGTFDV [En_Gen], the assay gave 2.6 nM (6 of 6 replicates; controls 0 of 18).
For GFDLDEYGIS | VIYADGQRTAYADSVK | GNTAGTFDT [En_Gen], the assay gave 310 pM (6 of 6 replicates; controls 0 of 18).

The range of this assay differs from that of the first round, and the authors advise against merging the two. The authors averaged sequences with at least three values out of six and counted those with two or fewer as poor binders.